One experiment concerns the target EGFR L858R/T790M (Homo sapiens (Human), UniProt P00533, L858R/T790M). In words: HTRF-based EGFR biochemical assay (L858R/T790M). The settings on record: read-out: HTRF IC50 EGFR L858R/T790M; 100 μM ATP, enzyme 0.02 nM. How it is done: (§1) Example 25: HTRF-Based EGFR Biochemical Assays
(§2) EGFR biochemical activity measurements were carried out using the homogeneous time-resolved fluorescence (HTRF) assay (Cisbio), inhibitors and DMSO normalizations were first dispensed to empty black low-volume 384-well plates (Corning) with 0300 digital liquid dispenser (HP). All reactions were carried out at room temperature and solutions were added to plates with a Multidrop Combi Reagent Dispenser (ThermoFisher). The reaction mixture (10 μL final volume) contained 1 μM tyrosine kinase peptide-biotin substrate and mutant EGFR in a reaction buffer (50 mM HEPES pH 7.0, 5 mM MgCl2, 1 mM MnCl2, 0.01% BSA, 2 mM TCEP, 0.1 mM NaVO4). Enzyme concentrations were adjusted to accommodate varying kinase activities (L858R 0.1 nM, L858R/T790M 0.02 nM). Enzyme reaction solution (2× concentrations, 5 μL) was added to 384-well plates containing compounds and incubated for 30 mins. Enzyme reactions were initiated with the addition of 5 μL of ATP to a final concentration of 100 μM and reacted for 20 mins. Reactions were quenched with the addition of 10 μL of phospho-tyrosine antibody-Europium(III) cryptate (1-to-180 volume ratio) and Streptavidin-XL665 (46.7 nM) in EDTA-containing detection buffer, then incubated at room temperature for 1 hour, and read with a PHERAstar plate reader (excitation=337 nm, emission=620 nm and 665 nm). […]

Chains of the proteins cited; added tags and fusions are not shown. Residues count along the entry.
UniProt P00533, 25-1210 L858R limits assumed: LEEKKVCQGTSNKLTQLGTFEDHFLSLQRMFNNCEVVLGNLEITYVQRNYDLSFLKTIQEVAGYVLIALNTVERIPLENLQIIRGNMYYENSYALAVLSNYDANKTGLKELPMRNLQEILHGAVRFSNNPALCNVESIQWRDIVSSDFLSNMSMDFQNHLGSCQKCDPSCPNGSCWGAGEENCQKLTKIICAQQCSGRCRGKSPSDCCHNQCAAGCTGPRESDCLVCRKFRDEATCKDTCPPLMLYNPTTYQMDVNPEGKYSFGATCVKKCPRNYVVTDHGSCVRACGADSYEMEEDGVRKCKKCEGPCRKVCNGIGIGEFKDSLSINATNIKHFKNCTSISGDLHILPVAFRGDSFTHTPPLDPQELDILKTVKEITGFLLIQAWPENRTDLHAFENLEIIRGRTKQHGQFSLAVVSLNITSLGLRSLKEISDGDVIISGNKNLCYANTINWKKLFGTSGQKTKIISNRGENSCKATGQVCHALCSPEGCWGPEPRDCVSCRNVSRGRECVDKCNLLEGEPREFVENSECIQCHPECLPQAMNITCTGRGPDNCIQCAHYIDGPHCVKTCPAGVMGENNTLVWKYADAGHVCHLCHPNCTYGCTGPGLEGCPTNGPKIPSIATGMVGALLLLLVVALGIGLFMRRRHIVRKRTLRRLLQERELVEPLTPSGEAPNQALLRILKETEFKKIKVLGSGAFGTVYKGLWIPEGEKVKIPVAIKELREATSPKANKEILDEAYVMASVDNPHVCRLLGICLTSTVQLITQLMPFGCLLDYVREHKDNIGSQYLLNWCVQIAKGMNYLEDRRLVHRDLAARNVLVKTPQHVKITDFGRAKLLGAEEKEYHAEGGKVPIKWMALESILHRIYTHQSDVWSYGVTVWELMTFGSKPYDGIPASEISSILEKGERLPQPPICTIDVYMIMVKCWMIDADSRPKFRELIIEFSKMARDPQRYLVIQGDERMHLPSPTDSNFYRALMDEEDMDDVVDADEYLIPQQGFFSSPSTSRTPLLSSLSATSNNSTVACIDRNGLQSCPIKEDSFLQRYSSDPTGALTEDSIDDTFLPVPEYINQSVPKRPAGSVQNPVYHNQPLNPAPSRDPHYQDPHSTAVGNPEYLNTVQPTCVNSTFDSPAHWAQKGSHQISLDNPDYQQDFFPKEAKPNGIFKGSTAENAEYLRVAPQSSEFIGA
UniProt P00533, 25-1210 T790M/L858R limits assumed: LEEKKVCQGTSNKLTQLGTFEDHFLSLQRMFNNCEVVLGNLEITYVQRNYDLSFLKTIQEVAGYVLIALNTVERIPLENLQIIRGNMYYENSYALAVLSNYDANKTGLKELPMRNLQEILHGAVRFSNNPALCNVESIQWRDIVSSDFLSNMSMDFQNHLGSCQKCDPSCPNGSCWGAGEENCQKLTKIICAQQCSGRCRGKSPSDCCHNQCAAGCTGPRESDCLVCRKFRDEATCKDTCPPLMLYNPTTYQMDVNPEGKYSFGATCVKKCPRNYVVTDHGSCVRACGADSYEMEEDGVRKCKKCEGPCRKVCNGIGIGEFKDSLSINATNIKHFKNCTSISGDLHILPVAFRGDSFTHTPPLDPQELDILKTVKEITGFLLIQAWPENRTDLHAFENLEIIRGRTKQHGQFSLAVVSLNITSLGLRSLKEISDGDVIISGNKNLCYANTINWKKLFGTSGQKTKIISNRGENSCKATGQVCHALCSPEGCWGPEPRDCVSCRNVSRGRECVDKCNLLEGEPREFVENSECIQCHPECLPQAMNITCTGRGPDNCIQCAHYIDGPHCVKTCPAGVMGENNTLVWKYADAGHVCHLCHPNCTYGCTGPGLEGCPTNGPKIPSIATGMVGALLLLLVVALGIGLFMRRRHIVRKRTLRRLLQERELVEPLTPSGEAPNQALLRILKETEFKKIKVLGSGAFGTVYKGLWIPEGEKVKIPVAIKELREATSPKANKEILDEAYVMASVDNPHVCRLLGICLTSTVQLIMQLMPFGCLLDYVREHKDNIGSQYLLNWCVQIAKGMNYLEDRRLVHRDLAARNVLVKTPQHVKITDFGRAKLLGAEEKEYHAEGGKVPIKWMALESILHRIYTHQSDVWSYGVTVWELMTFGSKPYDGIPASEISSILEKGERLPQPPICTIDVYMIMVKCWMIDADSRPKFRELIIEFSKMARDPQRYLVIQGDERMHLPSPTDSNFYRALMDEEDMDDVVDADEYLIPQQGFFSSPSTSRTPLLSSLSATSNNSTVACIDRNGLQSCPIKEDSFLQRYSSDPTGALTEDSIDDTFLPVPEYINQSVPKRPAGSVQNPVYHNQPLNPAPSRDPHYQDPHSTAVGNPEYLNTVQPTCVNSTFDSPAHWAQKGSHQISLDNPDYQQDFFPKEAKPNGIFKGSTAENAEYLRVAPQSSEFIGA

The subject of experiment [1] is EGFR mutant L858R/T790M Ba/F3 cells. Nature of the experiment: Ba/F3 cell proliferation model (Cell Titer Glo), EGFR L858R/T790M. The settings on record: 72 hours. An excerpt: Example 26: Ba/F3 Cell Proliferation Models
The EGFR mutant L858R and L858R/T790M Ba/F3 cells have been previously described (Zhou, W., et al. Nature 462, 2009, 1070-1074). All cell lines were maintained in RPM 1640 (Cellgro; Mediatech Inc., Herndon. CA) supplemented with 10% FBS, 100 units/mL penicillin, 100 units/mL streptomycin. The EGFR I941R mutation was introduced via site directed mutagenesis using the Quick Change Site-Directed Mutagenesis kit (Stratagene; La Jolla, CA) according to the manufacturer's instructions. All constructs were confirmed by DNA sequencing. The constructs were shuttled into the retroviral vector JP1540 using the Cre-recombination system (Agilent Technologies, Santa Clara, CA). […]
Growth and inhibition of growth was assessed by the Cell Titer Glo® assay (Promega, Madison, WI) and was performed according to the manufacturer's instructions. The Cell Titer Glo® assay is a luminescence-based method used to determine the number of viable cells based on quantitation of the ATP present, which is directly proportional to the amount of metabolically active cells present. Ba/F3 cells of different EGFR genotypes were exposed to compounds as a single agent or in combination with 1 μg/mL cetuximab for 72 hours and the number of cells used per experiment was determined empirically as has been previously established (Zhou, et al., Nature 2009). […]

The target of a further experiment is EGFR L858R (Homo sapiens (Human), UniProt P00533, L858R). In words: HTRF-based EGFR biochemical assay (L858R). The settings on record: read-out: HTRF IC50 EGFR L858R; 100 μM ATP, enzyme 0.1 nM. How it is done:
as §1, §2
A general note: In TR-FRET formats the signal depends on donor and acceptor labels being close together.

Read-outs that look alike come from different tables or passages of the source. A value given as a limit tells only on which side of the number the result lay.

As to `Nc1ccc(C#Cc2ccc3c(c2)C(=O)N(C(c2nc4ccccc4[nH]2)c2n[nH]c4c2CCC4)C3)cn1` (stereo not shown), the IC50 at EGFR L858R/T790M is 35 nM; in experiment [1] (read-out: Cell IC50 BaF3 EGFR L858R/T790M (+cetux.), in combination with 1 μg/mL cetuximab) it was 330 nM; in experiment [1] (read-out: Cell IC50 BaF3 EGFR L858R/T790M, single agent), over 10000 nM; on EGFR L858R it was 80 nM.

The record behind these values is patent US12391671B2, “Allosteric EGFR inhibitors and methods of use thereof” (Dana-Farber Cancer Institute, Inc., priority 2019, dated 2025).
